Reference: US6791003B1
This is a selection: effects in other tests are not listed, and their absence says nothing.

Test: in vitro skin flux of fentanyl through cadaver skin in a diffusion cell
Conditions: first laminated layer alone, method of J. Pharm. Sci. (1983) 72:968

CCC(=O)N(c1ccccc1)C1CCN(CCc2ccccc2)CC1
flux of fentanyl from the first laminated layer through the skin: 0.2˜3.0 μg/cm^2/hr
